# Values of other authors in US6083922A (priority 1997, dated 2000).
# Details: previous studies; cited from earlier work
structure (smiles),measurement,value
NC[C@H]1O[C@H](O[C@H]2[C@H](O)[C@@H](O[C@H]3O[C@H](CO)[C@@H](O)[C@H](N)[C@H]3O)[C@H](N)C[C@@H]2N)[C@H](N)C[C@@H]1O [tobramycin],fold higher concentration needed to overcome sputum inhibition,5-10 times
